The values that follow come from patent US10160867B2, “Benzoxaborole-containing coating resistant to cellulose-supportable fungus” (THE PENN STATE RESEARCH FOUNDATION, priority 2015, dated 2018).

Assay in all cases: 3 day MIC, broth microdilution in 25% PDB
What all share (format): cell-based
Settings in all cases: 72 h, read-out: 3 day MIC

Test [1] deals with Penicillium brevicompactum. The method, then: (§1) Stock solutions (concentrations of between 4,000 μg/mL to 10,000 μg/mL; stored at −18° C.) of the above antifungals were prepared in dimethyl sulfoxide (DMSO). The stock solutions were further diluted into sterile 25% potato dextrose broth (PDB) so that the diluted solutions could be used for the antifungal susceptibility studies. This way, a typical microdilution study would reach a final ratio of about 0.5-2% v/v of DMSO in 25% PDB.
(§2) Spore inocula were prepared in sterile distilled water with 0.1% Tween® 20 (a polysorbate surfactant), and a hemocytometer was used to determine the spore density. Typically, the spore inoculum was prepared fresh prior to each study, and the inoculum was appropriately diluted to a final concentration of 0.4-1×10^5 spores/mL or colony-forming unit (CFU)/mL in each study. The spore suspension can be stored in a refrigerator at 4° C. for up to one week.
(§3) The studies were performed in flat bottom, 96-well microtiter plates (Greiner Bio-One, Frickenhausen, Germany).
(§4) Plates sealed with clear polyester film (VWR, Radnor, Pa.) were incubated at a temperature of about 25° C. The progress of fungal growth was monitored at 48 hours and 72 hours.

In test [2] the test system is Penicillium chrysogenum. The method, then: as §1, §2, §3, §4
The subject of test [3] is Penicillium corylophilum. The protocol: as §1, §2, §3, §4
The subject of test [4] is Penicillium purpurogenum. The method, then:
as §1, §2, §3, §4

Test [5] has as its system Stachybotrys chartarum. The method, then:
as §1, §2, §3, §4

Test [6] has as its system Aspergillus flavus. The protocol: as §1, §2
(§5) The minimal inhibitory concentrations (MICs) for individual antifungal agents were determined by following a modified broth microdilution protocol CLSI (Clinical and Laboratory Standards Institute) M38-A2 [Clinical and Laboratory Standards Institute (2008) Reference method for broth dilution antifungal susceptibility testing of filamentous fungi—2nd edition: Approved Standard M38-A2, CLSI, Wayne, Pa.] where 25% potato dextrose broth (PDB) was used as the medium. The studies were performed in flat bottom, 96-well microtiter plates (Greiner Bio-One, Frickenhausen, Germany).
as §4

For test [7], the system named is Aspergillus fumigatus. The method, then:
as §1, §2, §5, §4

The test system of test [8] is Aspergillus niger. The method, then: as §1, §2, §5, §4
The subject of test [9] is Aureobasidium pullulans. The method, then:
as §1, §2, §5, §4

The test system of test [10] is Cladosporium cladosporioides. The protocol:
as §1, §2, §5, §4

Test [11] has as its system Mucor spp. The method, then:
as §1, §2, §5, §4

The subject of test [12] is Rhizopus spp. The protocol:
as §1, §2, §5, §4

≈ marks a conversion by molar mass, not a printed value.

Take `OB1OCc2ccccc21` [Compound B0, 2-(hydroxymethyl)-benzene boronic acid hemiester]: the MIC (as a rule, the lowest concentration found to suppress growth) in test [1] came out at 1.6 µg/mL (≈ 11.9 µM); in test [2], 3.13 µg/mL (≈ 23.4 µM); in [3], 3.13 µg/mL (≈ 23.4 µM); in [4] it was 6.3 µg/mL (≈ 47 µM); in test [5] it was 0.5 µg/mL (≈ 3.73 µM); in test [6], 2 µg/mL (≈ 14.9 µM). In addition, the MIC was found to be 0.5 µg/mL (≈ 3.73 µM) in test [7]; 2 µg/mL (≈ 14.9 µM) in [8]; 1 µg/mL (≈ 7.47 µM) in [9]; 0.5 µg/mL (≈ 3.73 µM) in test [10]; 0.5 µg/mL (≈ 3.73 µM) in test [11]; 4 µg/mL (≈ 29.9 µM) in [12].
